Experimental data: patent US20100292337A1, “Polar Hydrophilic Prodrugs of Amphetamine and Other Stimulants and Processes for Making and Using the Same” (priority 2007, published 2010)

Assay: Example 13: oral pharmacokinetic study of Lys-Amp and Cit-Amp
Settings: rat, released d-amphetamine

For “l-citrulline-d-amphetamine hydrochloride [Cit-Amp]”, the Tmax was 15 min.
